# Patent publication US4532255A, “Amidine compounds and anticomplement agent comprising same” (Torii & Co., Ltd., priority 1980, dated 1985)
# Target: T1, C1r (Homo sapiens, UniProt P00736)
# T1 sequence (P00736 464-705 limits assumed): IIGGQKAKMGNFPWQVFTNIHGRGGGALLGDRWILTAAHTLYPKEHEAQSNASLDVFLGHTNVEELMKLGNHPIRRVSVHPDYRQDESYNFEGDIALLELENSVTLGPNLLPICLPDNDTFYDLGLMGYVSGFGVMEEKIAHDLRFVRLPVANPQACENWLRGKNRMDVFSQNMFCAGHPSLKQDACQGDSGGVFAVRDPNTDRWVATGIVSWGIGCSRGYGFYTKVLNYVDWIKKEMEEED
# T1 sequence (P00736 18-463 partner limits assumed): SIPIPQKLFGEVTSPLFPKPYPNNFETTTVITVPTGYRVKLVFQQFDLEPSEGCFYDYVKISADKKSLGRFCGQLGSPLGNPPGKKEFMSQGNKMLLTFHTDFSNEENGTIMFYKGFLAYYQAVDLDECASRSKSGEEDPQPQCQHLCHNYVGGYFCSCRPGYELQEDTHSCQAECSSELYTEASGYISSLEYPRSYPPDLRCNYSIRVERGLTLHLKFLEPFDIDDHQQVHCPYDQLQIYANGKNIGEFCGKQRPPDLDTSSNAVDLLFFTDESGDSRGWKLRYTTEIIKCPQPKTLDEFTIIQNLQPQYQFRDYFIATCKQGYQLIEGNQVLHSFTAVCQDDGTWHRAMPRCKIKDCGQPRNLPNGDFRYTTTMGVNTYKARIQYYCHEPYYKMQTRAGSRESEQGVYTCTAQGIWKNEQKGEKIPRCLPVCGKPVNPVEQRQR
# Experiment: Anti-C1 esterase (C1r) activity (hydrolysis of AAME)
# Type: biochemical
# Description: The anti-Cl esterase ([…]) activity was determined according to the method of Okamura et al. [K. Okamura, M. Muramatsu and S. Fujii, Biochem. Biophys.
smiles,measurement,value
N=C(N)c1ccc2cc(OC(=O)c3ccc(F)cc3)ccc2c1 [Compound 15],IC50,200 nM
